Counter-ions that a name gives are not always drawn.
Target: EGFR kinase (Homo sapiens, UniProt P00533)
Test: EGFR kinase activity assay (time-resolved fluorescence)
Type: biochemical
Details: human-derived recombinant EGFR kinase, 20 μM ATP, 25° C., 45 minutes; read-out: IC50 (EGFR/BIO)
Description: The in vitro EGFR kinase activity was tested by the following assay.

Chains of the proteins cited; added tags and fusions are not shown. Residues count along the entry.
UniProt P00533, 25-1210: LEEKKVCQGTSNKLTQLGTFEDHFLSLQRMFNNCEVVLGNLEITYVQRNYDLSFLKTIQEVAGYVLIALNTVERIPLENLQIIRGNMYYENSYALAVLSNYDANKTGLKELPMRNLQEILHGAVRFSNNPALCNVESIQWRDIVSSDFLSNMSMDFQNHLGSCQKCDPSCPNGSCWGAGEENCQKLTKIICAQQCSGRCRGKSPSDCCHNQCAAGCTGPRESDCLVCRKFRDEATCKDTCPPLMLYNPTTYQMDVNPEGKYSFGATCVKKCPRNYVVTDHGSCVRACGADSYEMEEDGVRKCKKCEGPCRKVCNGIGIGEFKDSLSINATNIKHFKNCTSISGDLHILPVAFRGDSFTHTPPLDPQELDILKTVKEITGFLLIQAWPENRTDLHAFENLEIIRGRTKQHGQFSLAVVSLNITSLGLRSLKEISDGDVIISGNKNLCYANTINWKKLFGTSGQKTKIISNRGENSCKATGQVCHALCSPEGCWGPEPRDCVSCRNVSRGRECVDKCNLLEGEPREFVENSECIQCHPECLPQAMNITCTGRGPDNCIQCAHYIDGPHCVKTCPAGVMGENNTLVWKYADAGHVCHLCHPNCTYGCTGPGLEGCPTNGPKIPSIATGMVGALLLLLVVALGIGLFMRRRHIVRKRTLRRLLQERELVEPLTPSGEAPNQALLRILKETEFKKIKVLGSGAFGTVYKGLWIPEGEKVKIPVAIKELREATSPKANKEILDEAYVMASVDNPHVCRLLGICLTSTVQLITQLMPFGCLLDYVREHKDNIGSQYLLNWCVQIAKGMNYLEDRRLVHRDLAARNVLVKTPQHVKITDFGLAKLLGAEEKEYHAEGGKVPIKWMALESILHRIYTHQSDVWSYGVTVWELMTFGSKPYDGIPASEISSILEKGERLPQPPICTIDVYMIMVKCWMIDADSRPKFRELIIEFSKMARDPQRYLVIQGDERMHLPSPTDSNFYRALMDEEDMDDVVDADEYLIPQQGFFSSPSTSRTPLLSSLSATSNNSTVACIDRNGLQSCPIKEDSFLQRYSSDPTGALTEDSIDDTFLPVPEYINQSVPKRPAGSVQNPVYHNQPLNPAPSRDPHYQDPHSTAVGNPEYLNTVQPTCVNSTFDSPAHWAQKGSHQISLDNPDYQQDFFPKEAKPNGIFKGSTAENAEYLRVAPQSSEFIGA

Compound	IC50 [nM]
CCOc1cc2ncc(C#N)c(Nc3ccc(OCc4ccccn4)c(Cl)c3)c2cc1NC(=O)/C=C/[C@H]1CCCN1C.O=C(O)/C=C\C(=O)O [Example 1, (E)-N-[4-[[3-chloro-4-(2-pyridylmethoxy)phenyl]amino]-3-cyano-7-ethoxy-6-quinolyl]-3-[(2R)-1-methylpyrrolidin-2-yl]prop-2-enamide maleate]	25
CCOc1cc2ncc(C#N)c(Nc3ccc(OCc4ccccn4)c(Cl)c3)c2cc1NC(=O)/C=C/[C@H]1CCCN1C.O=C(O)/C=C\C(=O)O [Example 2, (E)-N-[4-[[3-chloro-4-(2-pyridylmethoxy)phenyl]amino]-3-cyano-7-ethoxy-6-quinolyl]-3-[(2R)-1-methylpyrrolidin-2-yl]prop-2-enamide dimaleate]	9
CCOc1cc2ncc(C#N)c(Nc3ccc(OCc4ccccn4)c(Cl)c3)c2cc1NC(=O)/C=C/[C@H]1CCCN1C.O=C(O)C[C@H](O)C(=O)O [Example 3, (E)-N-[4-[[3-chloro-4-(2-pyridylmethoxy)phenyl]amino]-3-cyano-7-ethoxy-6-quinolyl]-3-[(2R)-1-methylpyrrolidin-2-yl]prop-2-enamide L-malate]	31
CCOc1cc2ncc(C#N)c(Nc3ccc(OCc4ccccn4)c(Cl)c3)c2cc1NC(=O)/C=C/[C@H]1CCCN1C.Cc1ccc(S(=O)(=O)O)cc1 [Example 7, (E)-N-[4-[[3-chloro-4-(2-pyridylmethoxy)phenyl]amino]-3-cyano-7-ethoxy-6-quinolyl]-3-[(2R)-1-methylpyrrolidin-2-yl]prop-2-enamide p-toluenesulfonate]	26
CCOc1cc2ncc(C#N)c(Nc3ccc(OCc4ccccn4)c(Cl)c3)c2cc1NC(=O)/C=C/[C@H]1CCCN1C.O=C(O)CCC(=O)O [Example 8, (E)-N-[4-[[3-chloro-4-(2-pyridylmethoxy)phenyl]amino]-3-cyano-7-ethoxy-6-quinolyl]-3-[(2R)-1-methylpyrrolidin-2-yl]prop-2-enamide succinate]	28
CCOc1cc2ncc(C#N)c(Nc3ccc(OCc4ccccn4)c(Cl)c3)c2cc1NC(=O)/C=C/[C@H]1CCCN1C [Example 9, (E)-N-[4-[[3-chloro-4-(2-pyridylmethoxy)phenyl]amino]-3-cyano-7-ethoxy-6-quinolyl]-3-[(2R)-1-methylpyrrolidin-2-yl]prop-2-enamide dihydrochloride]	35

System: human epidermoid carcinoma A431 cells, which have high expression of EGFR
Test: EGFR cell proliferation inhibition assay (SRB, 72 hours)
Type: cell-based
Details: not given
Description: The activity is represented by the IC50 value. The general procedures of the assay were as follows: the cancer cells A431 highly expressing EGFR were chosen and seeded in a 96-well cell culture plate at a suitable density (e.g., 5000 cells/mL medium). The cells were then incubated in a carbon dioxide incubator until they reached 85% confluence. Then, the cell culture medium was replaced by fresh medium containing the test compounds with serial dilutions (general 6 to 7 concentrations). The cells were put back in the incubator and cultured continuously for 72 hours. The activity of the test compounds for inhibiting the cell proliferation was determined by using a Sulforhodamine B (SRB) method. IC50 values were calculated by the rate of inhibition at various concentrations of the test compounds.

Compound	IC50 [nM]
CCOc1cc2ncc(C#N)c(Nc3ccc(OCc4ccccn4)c(Cl)c3)c2cc1NC(=O)/C=C/[C@H]1CCCN1C [Example 1f, (E)-N-[4-[[3-chloro-4-(2-pyridylmethoxy)phenyl]amino]-3-cyano-7-ethoxy-6-quinolyl]-3-[(2R)-1-methylpyrrolidin-2-yl]prop-2-enamide]	45
